Measurements reported in patent US7550469B2, “Heterocyclic amide derivatives and their use as dopamine D3 receptor ligands” (Aventis Pharmaceuticals Inc., priority 2001, dated 2009).

Chains of the proteins cited; added tags and fusions are not shown.
UniProt P35462, whole entry: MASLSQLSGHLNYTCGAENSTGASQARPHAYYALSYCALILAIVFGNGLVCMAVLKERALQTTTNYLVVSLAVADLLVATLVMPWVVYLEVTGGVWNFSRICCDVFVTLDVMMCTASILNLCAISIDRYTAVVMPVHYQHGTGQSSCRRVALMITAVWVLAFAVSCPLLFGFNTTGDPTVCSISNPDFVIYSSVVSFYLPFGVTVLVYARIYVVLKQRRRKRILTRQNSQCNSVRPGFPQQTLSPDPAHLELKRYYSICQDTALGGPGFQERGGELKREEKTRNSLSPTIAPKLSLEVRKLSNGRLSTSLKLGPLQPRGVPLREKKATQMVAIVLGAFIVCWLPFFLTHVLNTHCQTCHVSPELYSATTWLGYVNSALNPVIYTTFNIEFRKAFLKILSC

target: cloned human dopamine D3 receptors (Homo sapiens, UniProt P35462); test: [N-Methyl-3H]Spiroperidol binding to cloned human dopamine D3 receptors (Protocol 1); settings: read-out: D3K1
Text: [N-Methyl-^3H]Spiroperidol Binding to Cloned Human Dopamine D3 Receptors
This assay measures the in vitro activity of compounds on cloned human dopamine (D3) receptors and predicts the direct dopamine-blocking properties of putative neuropsychiatric agents at human dopamine D3 receptors.
The D3 gene was isolated from a human striatal cDNA library (Stratagene). The gene was sequenced and sub-cloned into the expression vector RC/RSV (Invitrogen). CHO (Chinese Hamster Ovary) cells were stably transfected with 10 μg of the D3/RSV plasmid using the DOTAP method from Boehringer Mannheim and 72 clones that were G418 resistant were isolated. Using mRNA and binding displacement data a single high expressing clone was identified. This clone was then grown in large batches for the purpose of developing a 96 well format assay.
• 1. One plate (10 cm) with approximately 2-3 million D3 cells per plate is incubated with 1 ml of Trypsin-EDTA at room temperature for ˜2 min or until cells have lifted off plates. Four ml of Ham's F12+10% Fetal Bovine Serum+1% Penicillin/Streptomycin+G418 (400 μg/ml) medium are added to resuspend cells and 1 ml of this is added to each large plate (15 cm) containing 19 ml of the-same medium as mentioned above. • 2. The 5 large plates are incubated at 37° C.+5% CO2 for ˜3 days or until the cells are confluent. • 3. After these plates are confluent, they are split into 10 large plates. Medium is aspirated off, 2 ml of Trypsin-EDTA are added to each plate and plates are incubated at RT for 2 min or until cells have lifted off the plate. Eight ml of the F12 medium (same medium as #1 above) are added to each plate (10 ml total) to resuspend the cells and 5 ml are transferred to the 2 new plates containing 15 ml of the F12 media. • 4. The 10 large plates are incubated at 37° C.+5% CO2 for ˜2 days or until the cells are confluent. • 5. The 10 large plates are split into 60 large plates (using Trypsin-EDTA as #3 except 4 ml of F12 medium are added to resuspend cells and 1 ml is aliquoted to 6 new plates containing 19 ml of F12 medium each). • 6. Plates are incubated at […]+5% CO2 for ˜3 days or until cell are confluent. • 7. The 60 large plates are then split into 60 roller bottles (100-150 million cells/bottle). Medium is aspirated off, 2 ml of Trypsin-EDTA are added to each plate and incubated at RT for ˜2 minutes or until cells have lifted off plates. Eight ml of F12 medium are added to each plate to resuspend cells and the entire 10 ml are added to 1 roller bottle containing 90 ml of the F12 medium. • 8. The 60 roller bottles are immediately placed on their sides and transferred to the roller bottle incubator. They are incubated at 37° C.+5% CO2 for ˜3-5 days. Cells are spun at 30-40% motor speed in the Forma incubator. • 9. Medium is poured off and cells are washed 2× in PBS. • 10. Cells are then scraped off in 20 ml of PBS and the bottles are rinsed again with 5 ml of PBS to remove any remaining cells. Cells are stored on ice before membrane preparation. • 11. The yield for 60 D3 roller bottles has varied from ˜260-500 mg. • Note: All tissue culture reagents are from Gibco-BRL. C. Membrane Preparation
The cells are harvested into 250 ml centrifuge tubes with 100 volumes of cold phosphate buffered saline (PBS) and spun down (1200×G for 10 min at 4° C.). The medium is removed and 100 ml PBS are added to each centrifuge tube, cells are resuspend and spun down again. The PBS is removed and the final pellet is homogenized in an appropriate volume of 10% DMSO with a polytron on ice at a medium setting.
1. 0.5M Tris Buffer, pH 7.7 • a) 44.4 g Tris HCl 26.5 g Tris Base q.s. to 1 Liter (0.5 M Tris buffer, pH 7.7 at 37° C.) • b) make a 1:10 dilution in distilled H2O (0.05 M. Tris buffer, pH 7.7) 2. Tris Buffer Containing Physiological Salts • a) Stock buffer • NaCl 7.014 g • KCl 0.372 g • CaCl2 0.222 g • MgCl2 0.204 g • q.s. To 100 ml with 0.5 M. Tris Buffer • b) Dilute 1:10 in distilled H2O […]

| Ki | SMILES |
| --- | --- |
| 31 nM | CC1[C@@H](CNC(=O)c2ccc(F)cc2)[C@@H]1CN1CCN(c2csc3cc(C(F)(F)F)ccc23)CC1 (some centres unmarked) |
| 51 nM | CC1(C)[C@@H](CNC(=O)CCc2ccc([N+](=O)[O-])cc2)[C@@H]1CN1CCN(c2csc3cc(C(F)(F)F)ccc23)CC1 |
| 163 nM | CC1(C)[C@@H](CNC(=O)C2CCCCC2)[C@@H]1CN1CCN(c2csc3cc(C(F)(F)F)ccc23)CC1 |
| 40.2 nM | CC1[C@@H](CNC(=O)c2ccc3ccccc3c2)[C@@H]1CN1CCN(c2csc3cc(C(F)(F)F)ccc23)CC1 (some centres unmarked) |

same assay, conditions: read-out: D3K1; Table 2

| Ki | SMILES |
| --- | --- |
| 166 nM | COc1ccc(C(=O)NCC(CO)CCN2CCN(c3csc4cc(C(F)(F)F)ccc34)CC2)cc1OC (centres unmarked) |
| 230 nM | O=C(NCCC[C@@H](CO)N1CCN(c2csc3cc(C(F)(F)F)ccc23)CC1)c1cc2ccccc2o1 |
| 181 nM | O=C(NCC(CO)CCN1CCN(c2csc3cc(C(F)(F)F)ccc23)CC1)c1ccc(-c2ccccc2)cc1 (centres unmarked) |
| 3.1 nM | Cc1cccc2cc(C(=O)NCCCCN3CCCN(c4csc5cc(F)ccc45)CC3)oc12 |
| 18.3 nM | O=C(NC/C=C\CN1CCN(c2csc3cc(C(F)(F)F)ccc23)CC1)c1cc2ccccc2[nH]1 |
| 464 nM | O=C(NCCC[C@H](CO)N1CCN(c2csc3cc(C(F)(F)F)ccc23)CC1)c1cccc2ccccc12 |
| 187 nM | O=C(NCCC[C@@H](CO)N1CCN(c2csc3cc(C(F)(F)F)ccc23)CC1)c1cc2ccccc2s1 |
| 2.52 nM | O=C(NCCCCN1CCN(c2c(F)sc3cc(F)ccc23)CC1)c1ccc(Br)cc1 |
| 849 nM | COc1ccc(OC)c(C(=O)NCCC(CO)CN2CCN(c3csc4cc(C(F)(F)F)ccc34)CC2)c1 (centres unmarked) |
| 547 nM | O=C(NCCC[C@H](CO)N1CCN(c2csc3cc(C(F)(F)F)ccc23)CC1)c1ccc2[nH]ccc2c1 |
| 1.82 nM | CCOc1ccc(C(=O)NCCCCN2CCN(c3c(F)sc4cc(F)ccc34)CC2)cc1 |
| 173 nM | CC(=O)Nc1ccc(C(=O)NCCC[C@@H](CO)N2CCN(c3csc4cc(C(F)(F)F)ccc34)CC2)cc1 |
| 142 nM | CC(=O)Nc1cccc(C(=O)NCC(CO)CCN2CCN(c3csc4cc(C(F)(F)F)ccc34)CC2)c1 (centres unmarked) |
| 135 nM | O=C(NCC(CO)CCN1CCN(c2csc3cc(C(F)(F)F)ccc23)CC1)c1cccc(C(=O)c2ccccc2)c1 (single isomer, unassigned) [818912ES] |
| 314 nM | O=C(NCCC(CO)CN1CCN(c2csc3cc(C(F)(F)F)ccc23)CC1)c1cccc(C(=O)c2ccccc2)c1 (centres unmarked) |
| 326 nM | CCCCOc1ccc(C(=O)NCCCCN2CCN(c3c(-c4ccccc4)sc4cc(F)ccc34)CC2)cc1 |
| 243 nM | O=C(NCCC[C@H](CO)N1CCN(c2csc3cc(C(F)(F)F)ccc23)CC1)c1ccccc1-n1cccc1 |
| 238 nM | O=C(NCCC[C@@H](CO)N1CCN(c2csc3cc(C(F)(F)F)ccc23)CC1)c1ccc(Cl)cc1 |
| 325 nM | O=C(NCC(CO)CCN1CCN(c2csc3cc(C(F)(F)F)ccc23)CC1)c1ccccc1F (centres unmarked) |
| 190 nM | O=C(NCC(CO)CCN1CCN(c2csc3cc(C(F)(F)F)ccc23)CC1)c1cccc(F)c1 (centres unmarked) |

| Ki | SMILES |
| --- | --- |
| 295 nM | Cc1c(C(=O)NCC(CO)CCN2CCN(c3csc4cc(C(F)(F)F)ccc34)CC2)cnn1-c1ccccc1 (centres unmarked) |
| 436 nM | O=C(NCCC[C@@H](CO)N1CCN(c2csc3cc(C(F)(F)F)ccc23)CC1)c1c(F)cc(F)cc1F |
| 131 nM | O=C(NCC(CO)CCN1CCN(c2csc3cc(C(F)(F)F)ccc23)CC1)c1ccccc1 (centres unmarked) |
| 406 nM | O=C(NCCC[C@H](CO)N1CCN(c2csc3cc(C(F)(F)F)ccc23)CC1)c1cnnc2ccccc12 |
| 267 nM | COc1ccc(C(=O)NCCC(CO)CN2CCN(c3csc4cc(C(F)(F)F)ccc34)CC2)cc1 (centres unmarked) |
| 355 nM | O=C(NCCC[C@H](CO)N1CCN(c2csc3cc(C(F)(F)F)ccc23)CC1)c1cc2ccccc2s1 |
| 414 nM | O=C(NCCC(CO)CN1CCN(c2csc3cc(C(F)(F)F)ccc23)CC1)c1ccccc1CCc1ccccc1 (centres unmarked) |
| 264 nM | O=C(NCCC[C@@H](CO)N1CCN(c2csc3cc(C(F)(F)F)ccc23)CC1)c1ccc(Br)cc1 |
| 0.958 nM | O=C(NCCCCN1CCN(c2c(F)sc3cc(F)ccc23)CC1)c1ccc2ccccc2c1 |
| 442 nM | O=C(NCCC(CO)CN1CCN(c2csc3cc(C(F)(F)F)ccc23)CC1)c1ccc(Cl)cc1 (centres unmarked) |
| 0.5 nM | O=C(NCCCCN1CCN(c2c(F)sc3cc(F)ccc23)CC1)c1ccc(-c2ccccc2)cc1 |
| 0.826 nM | COc1ccc(C(=O)NCCCCN2CCN(c3c(F)sc4cc(F)ccc34)CC2)cc1 |
| 188 nM | O=C(NCC(CO)CCN1CCN(c2csc3cc(C(F)(F)F)ccc23)CC1)c1ccccc1O (centres unmarked) |
| 339 nM | O=C(NCC(CO)CCN1CCN(c2csc3cc(C(F)(F)F)ccc23)CC1)c1ccccc1Cl (centres unmarked) |
| 128 nM | CC(=O)Nc1ccc(C(=O)NCC(CO)CCN2CCN(c3csc4cc(C(F)(F)F)ccc34)CC2)cc1 (centres unmarked) |
| 160 nM | COc1ccc(C(=O)NCCC[C@@H](CO)N2CCN(c3csc4cc(C(F)(F)F)ccc34)CC2)cc1 |
| 10 nM | COc1ccc2[nH]c(C(=O)NC/C=C\CN3CCN(c4csc5cc(C(F)(F)F)ccc45)CC3)cc2c1 |
| 479 nM | COc1ccc(C(=O)NCCC[C@@H](CO)N2CCN(c3csc4cc(C(F)(F)F)ccc34)CC2)cc1OC |
| 222 nM | O=C(NCCC[C@@H](CO)N1CCN(c2csc3cc(C(F)(F)F)ccc23)CC1)c1cccc2ccccc12 |

same assay, conditions: read-out: D3K1; Table 2; tested form: hydrochloride

| Ki | SMILES |
| --- | --- |
| 3.45 nM | CCOc1ccc(C(=O)NCCCCN2CCN(c3csc4cc(C(F)(F)F)ccc34)CC2)cc1 [compound 815541] |
| 3.01 nM | O=C(NCCCCN1CCN(c2c(F)sc3cc(F)ccc23)CC1)c1cc2ccccc2s1 |

same assay, conditions: read-out: D3K1; Table 2; tested form: hydrochloride hydrate

| Ki | SMILES |
| --- | --- |
| 3.49 nM | O=C(NCCCCN1CCN(c2csc3cc(C(F)(F)F)ccc23)CC1)c1ccc(O)cc1 |

same assay, conditions: read-out: D3Ki; the 13th table, unit inferred

| Ki | SMILES |
| --- | --- |
| 11.7 nM | CC1=C(C(=O)NCCCCCN2CCCN(c3csc4cc(F)ccc34)CC2)Cc2ccccc21 |

same assay, conditions: read-out: D3Ki; the 13th table, unit inferred; tested form: maleate

| Ki | SMILES |
| --- | --- |
| 1.16 nM | O=C(NCCCCN1CCCN(c2csc3cc(F)ccc23)CC1)c1cccc2[nH]ccc12 [S977823] |
| 0.725 nM | O=C(NCCCCN1CCCN(c2csc3cc(F)ccc23)CC1)c1ccc2cc[nH]c2c1 [S977825] |
| 1.9 nM | COc1ccc2[nH]c(C(=O)NCCCCN3CCCN(c4csc5cc(F)ccc45)CC3)cc2c1 [S977820] |
| 1.22 nM | CC1=C(C(=O)NCCCCN2CCCN(c3csc4cc(F)ccc34)CC2)Cc2ccccc21 [S977827] |

same assay, conditions: read-out: D3 Ki; the 16th table

| Ki | SMILES |
| --- | --- |
| 3.1 nM | Cc1cccc2cc(C(=O)NCCCCN3CCCN(c4csc5cc(F)ccc45)CC3)oc12 |

same assay, conditions: read-out: D3 Ki; the 23rd table

| Ki | SMILES |
| --- | --- |
| 22.5 nM | C=CCN(CC=C)CC1CC1CN1CCCN(c2csc3cc(F)ccc23)CC1 (racemic) |
